The values below come from patent US20080167385A1, “Crystal Structure of Human Proliferating Cell Nuclear Antigen (Pcna) and Uses Thereof” (priority 2004, published 2008).

Protein sequences, listed by entry. Tags and fused reporters are not part of them. Lines headed by an entry give the natural chain unless they say otherwise; changes in a name come on top.
UniProt P11802: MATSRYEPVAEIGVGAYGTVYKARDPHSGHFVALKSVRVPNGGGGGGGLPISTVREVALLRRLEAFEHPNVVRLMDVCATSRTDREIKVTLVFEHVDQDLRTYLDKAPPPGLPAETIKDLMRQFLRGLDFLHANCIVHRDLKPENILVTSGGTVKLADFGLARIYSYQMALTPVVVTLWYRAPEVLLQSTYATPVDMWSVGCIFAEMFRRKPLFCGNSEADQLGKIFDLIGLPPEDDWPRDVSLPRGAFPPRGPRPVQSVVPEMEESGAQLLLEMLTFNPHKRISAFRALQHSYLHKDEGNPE
UniProt P24385, whole entry: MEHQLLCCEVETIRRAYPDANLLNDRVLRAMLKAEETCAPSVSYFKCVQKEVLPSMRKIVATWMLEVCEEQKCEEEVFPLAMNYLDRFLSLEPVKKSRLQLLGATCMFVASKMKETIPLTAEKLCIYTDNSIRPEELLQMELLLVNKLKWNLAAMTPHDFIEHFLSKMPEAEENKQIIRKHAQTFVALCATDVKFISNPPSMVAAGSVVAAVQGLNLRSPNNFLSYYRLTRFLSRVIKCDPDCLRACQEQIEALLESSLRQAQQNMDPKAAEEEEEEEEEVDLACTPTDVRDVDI

In this series the target is T1, CDK4/cyclin D1 (Homo sapiens, UniProt P11802+P24385).
T1 construct: His6 (N); made in house; host or cells: CDK4: Sf9 insect cells (baculovirus); GST-pRb: E. coli BL21(DE3)
The series can be described thus: CDK4/cyclin D1 kinase assay (in vitro pRb phosphorylation). The series is classed as biochemical.

Where two headings read alike, the source gives them in different places.

Turning to “PCNA: Recombinant human PCNA expressed in Escherichia coli BL21(DE3)”, the IC50 (1 μM CDK4/cyclin D1, no peptide, read-out: IC50, inhibition of CDK4/cyclin D1 kinase activity by PCNA) came out at 18 ± 2.4 µM and the IC50 (in the presence of 25 μM CM peptide, read-out: IC50, inhibition of CDK4/cyclin D1 function by PCNA) was found to be 15 ± 1.8 µM. The “phosphorylation of pRb” value (at 30 μM PCNA) is on record as “almost completely abolished”. For the same substance, the “kinase activity of 1 μM CDK4/cyclin D1” value (at up to 10 μM PCNA) is reported as “undiminished”.
